Experimental data as given in patent publication US20250144069A1, “BILOBALIDE DERIVATIVE COMPOUNDS FOR TREATING NEUROLOGICAL DISEASES AND CANCERS” (The Chinese University of Hong Kong, priority 2023, published 2025).

System: BV-2 murine microglial cell line
Assay: RSL3-induced ferroptosis model, cell viability (CCK-8)
Settings: BV-2, co-treated with multiple doses of RSL3, 50 μM compound, 24 h

CC(C)(C)[C@]1(O)C[C@@H]2OC(=O)C[C@@]23C(=O)O[C@@H]2N(c4ccc(N)cc4)C(=O)[C@H](OC(=O)c4ccccc4)[C@]213 [XBB-037, 4-(3aS,5aS,8R,9R,10aS)-8-(benzoyloxy)-9-(tert-butyl)-9-hydroxy-2,4,7-trioxohexahydro-4H,9H-furo[3″,2″:2′,3′]cyclopenta[1′,2′:3,4]furo[2,3-b]pyrrol-6(5aH)-yl)benzenaminium chloride]
shift of RSL3 dose-dependent viability curve: diminished RSL3 lethality

CC(C)(C)[C@]1(O)C[C@@H]2OC(=O)C[C@@]23C(=O)O[C@@H]2OC(=O)[C@H](O)[C@]213 [bilobalide]
shift of RSL3 dose-dependent viability curve: relatively marginal
